Molecular target: human GPR119 (Homo sapiens, UniProt Q8TDV5)
Experiment: Cyclic AMP Assay in Stable Cell Line (HTRF)
Conditions: read-out: hGPR119 EC50, Flp-In-CHO-hGPR119 cells, intracellular cAMP, 30 minutes at 37° C., 1 mM IBMX
Description: Flp-In-CHO cells (Invitrogen, Cat. #R758-07) are maintained in Ham's F12 medium supplemented with 10% fetal bovine serum, 1% antibiotic mixture and 2 mM L-glutamine. The cells are transfected with a DNA mixture containing human GPR119 in pcDNA5/FRT vector and the pOG44 vector (1:9) using Fugene6 (Roche), according to the manufacturer's instruction. After 48 hours, the medium is changed to medium supplemented with 400 μg/ml hygromycin B to initiate the selection of stably transfected cells.
To test the activity of compounds of the invention, Flp-In-CHO-hGPR119 cells are harvested and resuspended in DMEM plus 3% lipid-depleted fetal bovine serum. Forth μl of cells are plated in 384 well plates at a density of 15,000 cells/well. IBMX (3-isobutyl-1-methyl-xanthine) is added to the cells to a final concentration of 1 mM, followed by the addition of 500 nl of the compound to be tested. The cells are incubated at 37° C. for 30 minutes. Equal volume (20 μl) of the HTRF reagents, anti-cAMP-Cryptate and cAMP-XL665, are added to the cells. The plates are incubated at room temperature for 1 hour and read on a HTRF reader according to the manufacturer's instruction.

The chains behind the UniProt entries cited, without tags or fusion partners.
UniProt Q8TDV5, whole entry: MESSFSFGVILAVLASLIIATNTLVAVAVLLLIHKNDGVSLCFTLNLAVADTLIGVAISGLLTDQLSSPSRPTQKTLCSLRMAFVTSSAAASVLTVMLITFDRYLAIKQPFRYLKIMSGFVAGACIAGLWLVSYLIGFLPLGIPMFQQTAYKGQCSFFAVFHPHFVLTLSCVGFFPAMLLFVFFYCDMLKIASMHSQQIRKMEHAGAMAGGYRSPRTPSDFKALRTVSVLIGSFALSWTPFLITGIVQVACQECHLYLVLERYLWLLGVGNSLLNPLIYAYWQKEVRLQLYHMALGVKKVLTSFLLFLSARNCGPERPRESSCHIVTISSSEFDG

`CC(c1ccc(C(F)(F)F)cc1)N1CC(Oc2c(F)cc(C3CCN(S(C)(=O)=O)CC3)cc2F)C1` (centres unmarked) gave an EC50 of 12 nM.
`CS(=O)(=O)N1CCN(c2cnc(OC3CCN(Cc4nc(C(F)(F)F)cs4)CC3)cn2)CC1` was tested, and the EC50 was 442 nM.
